Test results taken from ChEMBL document CHEMBL4334470, “Small molecule modulators targeting protein kinase CK1 and CK2” (Eur J Med Chem, 2019).

By UniProt entry, the sequences of proteins in these tests, tags left out.
UniProt P68400, whole entry: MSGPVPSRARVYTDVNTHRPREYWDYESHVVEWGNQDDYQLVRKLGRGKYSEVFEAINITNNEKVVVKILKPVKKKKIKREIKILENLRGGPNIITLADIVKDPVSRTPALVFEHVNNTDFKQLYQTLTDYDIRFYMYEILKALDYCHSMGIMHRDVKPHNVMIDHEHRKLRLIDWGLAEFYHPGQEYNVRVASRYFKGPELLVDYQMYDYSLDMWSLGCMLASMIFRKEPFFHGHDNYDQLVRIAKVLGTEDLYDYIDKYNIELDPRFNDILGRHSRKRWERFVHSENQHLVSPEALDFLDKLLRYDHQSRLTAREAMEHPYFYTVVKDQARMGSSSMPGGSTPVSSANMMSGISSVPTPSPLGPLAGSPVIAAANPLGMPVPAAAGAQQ

What was measured:
[1] = target: T1, Casein kinase II subunit alpha (Homo sapiens, UniProt P68400); experiment: Inhibition of CK2alpha in human PLC1 cells using (Arg)3(Glu)3Thr(Glu)3 as substrate after 24 hrs in presence of [32P]gammaGTP; assay type: cell-based
[2] = target: T1, Casein kinase II subunit alpha; experiment: Inhibition of CK2alpha (unknown origin)

| Ki [1] | Structure (SMILES) | Ki [2] |
| --- | --- | --- |
| 4500 nM | CN(C)c1nc2c(Br)c(Br)c(Br)c(Br)c2[nH]1 |  |
|  | Cc1cc(O)c2c(c1)C(=O)c1cc(O)cc(O)c1C2=O [EMODIN] | 1500 nM |
